Measurements: patent publication US20100322882A1, “SOLUBILIZING AGENTS FOR ACTIVE OR FUNCTIONAL ORGANIC COMPOUNDS” (ISP INVESTMENTS INC., priority 2006, published 2010)

Test: Solubility of solid organic sunscreens in solubilizers (25° C.)
Type: physicochemical

Solubility of MBC in the solvent (solute 4-Methylbenzylidene camphor (MBC)): 28 wt. %
Solubility of E-517 (Avobenzone) in the solvent (solute Avobenzone (E-517)): 15 wt. %
Solubility of E-567 (Oxybenzone) in the solvent (solute Oxybenzone (E-567)): 17 wt. %
Substance: C12-15 alkyl benzoate [reference compound]
